{"source": "patent US12138309B2", "about": "“Topical formulations containing phthalocyanine photosensitizers” (MOLTENI THERAPEUTICS S.R.L., priority 2019, dated 2024)", "key": {"[1]": {"details": "diethylene glycol monoethyl ether used as solvent"}, "[2]": {"test": "Distribution of photosensitizer in pig buccal mucosa, cryomicrotome", "assay_type": "in vitro ADME", "details": "regardless of the formulation; 30 minutes and 5 hours"}}, "data": [{"substance": "1,8(11),15(18),22(25)-Tetra[3-(N,N,N-trimethylammonium)phenoxy]zinc phthalocyaninate (II) tetrachloride [RLP068]", "values": [{"measurement": "protection of RLP068/Cl against thermal stress by the solvent", "setting": "[1]", "value": "not adequately protective against a thermal stress"}, {"measurement": "accumulation in the first layers of the mucosa (up to 100 μm) compared to MRLP164", "setting": "[2]", "value": "accumulates in greater amount in the first layers of the mucosa"}]}]}
